{"source": "patent US10983137B2", "about": "“Diagnosis of leukocyte-mediated disease and halogen gas exposure” (dated 2021)", "experiment": "Mouse lung/plasma FALD-GSH analysis after bromine exposure", "details": "mice, 600 ppm bromine for 30 min", "protocol": "Plasma samples from mice exposed to bromine and chlorine were analyzed by LC/MS with SRM detection of FALD-GSH (including HDA-GSH and ODA-GSH) as described in the manuscript (Appendix A). […] . At indicated times plasma and lung was collected from these mice and the FALD-GSH was quantified. […] No adduct is observed in the plasma of mice exposed to air only (the first bar). […] By Ninety-six hours very little FALD-GSH is detectable."}
{"substance": "bromine", "values": [{"measurement": "amount of FALD-GSH adduct in plasma, 72 hr following exposure", "setting": "72 hr", "result": "still detectable but has decreased"}, {"measurement": "FALD-GSH in plasma, 96 hours following exposure", "setting": "96 hours", "result": "very little FALD-GSH is detectable"}, {"measurement": "FALD-GSH in plasma", "setting": "vs air only", "result": "robust increases"}]}
